# Antibody variant affinities, Ab-14 light chain, assay B

The target is the same throughout: PDVDLGDISGINAS, from the HR2 region of SARS-CoV-2 spike.

Each scFv is VH, the linker GGGGSGGGGSGGGGS, VL, as in the parent Ab-14, and differs from it in the CDRs of the light chain only.
VH: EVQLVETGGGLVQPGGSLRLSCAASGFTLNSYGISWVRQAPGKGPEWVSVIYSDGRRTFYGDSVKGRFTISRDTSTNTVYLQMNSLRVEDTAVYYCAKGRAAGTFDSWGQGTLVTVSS
VL: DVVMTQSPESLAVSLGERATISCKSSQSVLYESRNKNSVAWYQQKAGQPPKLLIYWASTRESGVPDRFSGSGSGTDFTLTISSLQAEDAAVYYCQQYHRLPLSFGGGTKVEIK

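The variants were designed computationally from a first round of random CDR variants and then made and measured. Their group label is 14L_GP_Gibbs (GP: Gaussian process model; Gibbs: Gibbs sampling; a sequence that several methods proposed may carry one label only). AlphaSeq pools MATa yeast showing the antibodies with MATalpha yeast showing the peptide. The frequency of each diploid, read from paired DNA barcodes, reflects how well the two displayed proteins bind. Read counts were normalised to the haploid input and turned into Kd by a linear fit to BCL2-family pairs of known affinity, for each replicate. Each pool was mated in six replicate cultures.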

Each variant is given by its three light chain CDRs, as the data file delimits them; those of the parent are KSSQSVLYESRNKNSVA, WASTRES, QQYHRLPLS.
Affinities are written as log10 Kd with Kd in nM; a lower number is a better binder.
Averages over replicates are reported, and they cover detected replicates only.
A pair that was not seen in that replicate is written "nd"; this usually means weak binding, but a binder can also be missed.
Of ten entries with the parent sequence, four were seen in most replicates (averages 0.34 to 2.37), three in one and three in none, so single entries are noisy.
As a blank, each scFv also met three strains without target: over all light chain designs, 4% of these pairings were detected, typically at 2.64 and seldom below 1.59. For each scFv, signals with the empty controls are counted beside the result, with their mean in brackets.
In the paper, a design with two or fewer of six values counts as a poor binder.
The range of this assay differs from that of the first round, and the authors advise against merging the two.

| # | CDR-L1 | CDR-L2 | CDR-L3 | replicates, log10 nM | mean, log10 nM | signal with controls |
|---|---|---|---|---|---|---|
| 1 | KWDQEVDGQSRNKNSVA | QASTREW | QQYHRLPLS | 0.63 / 0.68 / 0.64 / 0.34 / 0.38 / 1.22 | 0.65 | 0 of 18 |
| 2 | KLPQSVLYEQRNSNSVA | NASTRFS | QQYHRLPLS | -0.02 / 0.19 / 0.17 / -0.16 / 0.11 / 0.18 | 0.08 | 0 of 18 |
| 3 | KLSQSFMYEERNPNSVA | NASKREL | QQYHRLPLS | -0.32 / -0.29 / -0.28 / -0.66 / -0.38 / -0.17 | -0.35 | 1 of 18 (3.99) |
| 4 | KLSQSVEYESRDKNSVA | DASTRMS | QQYHRLPLS | -0.10 / -0.25 / -0.35 / -0.51 / -0.46 / -0.28 | -0.32 | 0 of 18 |
| 5 | KLDQSWMRESRNKNSVA | QASTREQ | QQYHRLPLS | 0.49 / 0.26 / 0.33 / 0.08 / 0.26 / 0.45 | 0.31 | 2 of 18 (3.52) |
| 6 | KMSQSVDGLDRNKNSVA | NASTREM | QQYHRLPLS | 0.26 / 0.29 / 0.27 / 0.04 / 0.31 / 0.47 | 0.27 | 4 of 18 (2.81) |
| 7 | KLSQWWLYESRMKNNVA | NASTRED | QQYHRLPLS | 0.63 / 0.18 / 0.72 / 0.40 / 0.41 / 0.78 | 0.52 | 0 of 18 |
| 8 | KLRTSVMLESRNKNSVA | SASTRES | QQYHRLPLS | 0.02 / -0.10 / 0.16 / 0.10 / 0.15 / 0.02 | 0.06 | 2 of 18 (3.23) |
| 9 | KLQQSVQYESRNKNSVA | NASDRQS | QQYHRLPLS | -0.10 / -0.20 / -0.13 / -0.27 / -0.32 / -0.01 | -0.17 | 1 of 18 (2.60) |
| 10 | KLQWSWLYESRNWNSVA | DASTRES | QQYHRLPLS | 0.21 / 0.14 / 0.19 / -0.09 / 0.18 / 0.27 | 0.15 | 0 of 18 |
| 11 | KHSQSVLYESRVKNSVA | DASQRES | QQYHRLPLS | 0.58 / 0.71 / 0.40 / 0.26 / 0.29 / 0.53 | 0.46 | 1 of 18 (3.08) |
| 12 | KLSCSELYEEPNSNSVA | NASTRPM | QQYHRLPLS | 0.37 / 0.24 / 0.23 / 0.20 / 0.28 / 0.30 | 0.27 | 2 of 18 (2.49) |
| 13 | KVSPSQEYWSRNKQSVA | HASLREE | QQYHRLPLS | 0.98 / 0.76 / 0.79 / 0.79 / 0.76 / 0.75 | 0.81 | 2 of 18 (2.27) |
| 14 | KLQQSMLYESRNHNNVA | AASDRES | QQYHRLPLS | -0.17 / -0.28 / -0.36 / -0.34 / -0.40 / -0.21 | -0.29 | 4 of 18 (2.94) |
| 15 | KLRQSKEYESRQKNSVA | NASTREV | QQYHRLPLS | 0.38 / 0.84 / 0.65 / 0.11 / 0.20 / 0.58 | 0.46 | 0 of 18 |
| 16 | KISQEVWYESRNKNSVA | EASQRES | QQYHRLPLS | 0.09 / 0.04 / -0.43 / -0.03 / -0.20 / 0.00 | -0.09 | 1 of 18 (1.09) |
| 17 | KLQQSTLYMSRNCNSVA | DASQRES | QQYHRLPLS | 0.44 / 0.28 / 0.23 / 0.24 / 0.52 / 0.32 | 0.34 | 1 of 18 (3.12) |
| 18 | KHSQSVEYESRDKNSVA | MASTRMS | QQYHRLPLS | nd / nd / nd / nd / 2.33 / nd | 2.33 | 0 of 18 |
| 19 | KVPFSVLYESRNKNAVA | QASTRES | QDYHRLPLS | -0.33 / 0.00 / -0.03 / 0.09 / 0.09 / 0.10 | -0.01 | 1 of 18 (2.28) |
| 20 | KLSGSMLYESRNKNNVA | DAHQRES | QMYHRLPLS | nd / nd / nd / 2.10 / 3.60 / 2.46 | 2.72 | 0 of 18 |
| 21 | KLPQSMEYESRNKNSVA | HASTRES | QQYHRLPLS | -0.12 / -0.36 / -0.33 / -0.50 / -0.44 / -0.25 | -0.33 | 1 of 18 (2.43) |
| 22 | KLDFLGLYEQRNKNSVA | SASTRES | QQYHRLPLS | -0.26 / -0.39 / -0.25 / -0.38 / -0.35 / -0.34 | -0.33 | 1 of 18 (2.08) |
| 23 | KAQFSCLYESRNQNSVA | SASYRLS | QQYHRLPLS | 0.47 / 0.59 / 0.55 / 0.64 / 0.69 / 0.88 | 0.64 | 0 of 18 |
| 24 | KLSQSNLYEDRNANNVA | NASQRES | QEYHRLPLS | 0.34 / 0.37 / 0.37 / 0.11 / 0.31 / 0.51 | 0.33 | 2 of 18 (2.87) |
| 25 | KVDQSNLYEQRNKNSVA | SASLRFS | QQYHRLPLS | 0.21 / 0.51 / 0.31 / 0.25 / 0.38 / 0.50 | 0.36 | 0 of 18 |
| 26 | KLSFGNLYESRNQNSVA | EASTRLQ | QQYHRLPLS | 0.28 / 0.00 / -0.03 / -0.19 / -0.06 / 0.18 | 0.03 | 1 of 18 (3.87) |
| 27 | KFMQSVPYESRNLNNVA | HGSTRCS | QQYHRLPLS | 0.65 / 0.48 / 0.55 / 0.51 / 0.72 / 0.68 | 0.60 | 3 of 18 (2.45) |
| 28 | KFSQQVLYESRQKNSVA | NASQRFS | QQYHRLPLS | -0.06 / 0.24 / 0.13 / 0.03 / 0.18 / 0.17 | 0.11 | 1 of 18 (2.87) |
| 29 | ILQQSVWYESRNKNSVA | DASVRES | QQYHRLPLS | 0.68 / 0.55 / 0.31 / 1.04 / 0.62 / 0.71 | 0.65 | 0 of 18 |
| 30 | KMSQSDLMEMRNMNSVA | NASTREM | QQYHRLPLS | 1.52 / 1.75 / 1.12 / 0.84 / 1.12 / 1.64 | 1.33 | 1 of 18 (1.76) |
| 31 | HSSWGVDDESRNDNSVA | DASTRES | QQYHRLPLS | 0.33 / -0.05 / -0.16 / 0.06 / -0.06 / -0.09 | 0.01 | 0 of 18 |
| 32 | KLVQSEGYESRNKNNVA | GASQRES | QQYHRLPLS | -0.27 / -0.47 / -0.51 / -0.62 / -0.61 / 0.01 | -0.41 | 1 of 18 (1.63) |
| 33 | KAQQSNEYESRNKWSVA | NASQRED | QQYHRLPLS | 0.37 / 0.23 / 0.34 / 0.13 / 0.22 / 0.46 | 0.29 | 0 of 18 |
| 34 | SLSQSWLYESRNKNSVA | NASTREW | QQYHRLPLS | 0.00 / -0.23 / -0.01 / -0.43 / 0.46 / 0.07 | -0.02 | 0 of 18 |
| 35 | KLSQSVWVLSRNKNSVA | NASTRES | QQYHRLPLS | -0.01 / -0.23 / -0.16 / -0.31 / -0.25 / -0.06 | -0.17 | 3 of 18 (3.47) |
| 36 | ALSWSQGGESRNPNSVA | HASTRES | QQYHRLPLS | 0.37 / 0.17 / 0.25 / 0.03 / 0.08 / 0.19 | 0.18 | 2 of 18 (2.89) |
| 37 | KYSQLVGMESRNMNSVA | NASTREE | QQYHRLPLS | 0.08 / 0.10 / 0.00 / -0.12 / -0.14 / 0.35 | 0.05 | 1 of 18 (2.69) |
| 38 | KLSCSCLYDSANKNSVA | NASTRLS | QQYHRLPLS | 0.41 / 0.45 / 0.45 / 0.51 / 0.17 / 0.47 | 0.41 | 2 of 18 (3.13) |
| 39 | KVSQSVLGEQRAQNSVA | EASKRES | QQYHRLPLS | 0.10 / 0.05 / -0.20 / -0.16 / -0.16 / 0.16 | -0.04 | 2 of 18 (2.33) |
| 40 | KLSFLGLYEQRNCNSVA | SASTRCS | QQYHRLPLS | 0.14 / 0.39 / 0.42 / 0.26 / 0.38 / 0.71 | 0.38 | 4 of 18 (2.47) |
| 41 | KLHQSDGYESRNKNSVA | AASTRSH | QQYHRLPLS | 0.33 / 0.19 / 0.04 / 0.05 / 0.25 / 0.35 | 0.20 | 0 of 18 |
| 42 | KLSQSVGGESRNKNSVA | EAQTREQ | QQYHRLPLS | 0.22 / 0.18 / -0.04 / 0.07 / -0.11 / 0.29 | 0.10 | 1 of 18 (4.51) |

Reference: Li et al. 2023, doi:10.1038/s41467-023-39022-2. File: FLAb, binding data.